What was measured:
[1] = molecular target: full length human TREX1 (Homo sapiens, UniProt Q9NSU2); experiment: TREX1 Biochemical Assay (fluorescence, dsDNA substrate degradation); settings: read-out: TREX1 IC50; 150 pM TREX1, 60 nM dsDNA substrate, 25 minutes at room temperature
Protocol: (§1) Degradation of the dsDNA liberates free fluorophore to produce a fluorescent signal. Specifically, 7.5 μL of N-terminally His-Tev tagged full length human TREX1 (expressed in E. coli and purified in house) in reaction buffer (50 mM Tris (pH 7.4), 150 mM NaCl, 2 mM DTT, 0.1 mg/mL BSA, 0.01% (v/v) Tween-20 and 100 mM MgCl2) was added to a 384-well Black ProxiPlate Plus (Perkin Elmer) which already contained compound (150 nL) at varying concentrations as a 10 point dose-response in DMSO. To this was added 7.5 μL of dsDNA substrate (Strand A: 5′ TEX615/GCT AGG CAG 3′; Strand B: 5′ CTG CCT AGC/IAbRQSp (Integrated DNA Technologies)) in reaction buffer. Final concentrations were 150 pM TREX1, 60 nM dsDNA substrate in reaction buffer with 1.0% DMSO (v/v). After 25 minutes at room temperature, reactions were quenched by the addition of 5 μL of stop buffer (same as reaction buffer plus 200 mM EDTA). […] After a 5-minute incubation at room temperature, plates were read in a laser sourced Envision (Perkin-Elmer), measuring fluorescence at 615 nm following excitation w/570 nm light. IC50 values were calculated by comparing the measured fluorescence at 615 nm ratio relative to control wells pre-quenched w/stop buffer (100% inhibition) and no inhibitor (0% inhibition) controls as using non-linear least square four parameter fits and either Genedata or GraphPad Prism (GraphPad Software, Inc.).

Sequences of proteins named here, by UniProt entry; tags and fusion partners are left off.
UniProt Q9NSU2, whole entry: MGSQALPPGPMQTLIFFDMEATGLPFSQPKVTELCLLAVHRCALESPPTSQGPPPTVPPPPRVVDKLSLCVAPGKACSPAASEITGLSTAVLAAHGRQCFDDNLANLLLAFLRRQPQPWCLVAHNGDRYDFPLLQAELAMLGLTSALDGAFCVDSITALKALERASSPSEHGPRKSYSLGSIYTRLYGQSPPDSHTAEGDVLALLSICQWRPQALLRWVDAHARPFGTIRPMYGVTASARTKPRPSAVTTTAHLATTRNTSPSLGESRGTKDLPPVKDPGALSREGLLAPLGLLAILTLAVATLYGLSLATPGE
UniProt Q9BQ50, whole entry: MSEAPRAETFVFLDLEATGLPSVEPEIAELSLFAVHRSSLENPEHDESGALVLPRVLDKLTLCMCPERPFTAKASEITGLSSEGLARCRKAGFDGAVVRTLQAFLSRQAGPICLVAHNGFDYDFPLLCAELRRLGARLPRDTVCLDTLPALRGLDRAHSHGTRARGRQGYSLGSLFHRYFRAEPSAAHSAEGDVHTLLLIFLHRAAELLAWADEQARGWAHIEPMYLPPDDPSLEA

[2] = molecular target: human TREX2 (residues M44-A279) (Homo sapiens, UniProt Q9BQ50); experiment: TREX2 Biochemical Assay (fluorescence, dsDNA substrate degradation); settings: read-out: TREX2 IC50; 2.5 nM TREX2, 60 nM dsDNA substrate, 25 minutes at room temperature
Protocol: as §1, with “tagged” for “tagged full length”, “TREX2 (residues M44-A279, expressed” for “TREX1 (expressed”, “(IDT))” for “(Integrated DNA Technologies))”, “2.5 nM TREX2,” for “150 pM TREX1,”

[3] = test system: HCT116 dual cells; experiment: HCT116 Cell Assay (Lucia luciferase reporter of Type I interferon induction); settings: read-out: HCT116 EC50; 4 h pre-treatment, pBR322/BstNI DNA transfection, Lucia luciferase at 48 h; relative to 10 uM compound 39
Description: HCT116 dual cells (Invivogen, San Diego, Calif., USA) are derived from the human HCT116 colorectal carcinoma cell line. Cells have been selected for the stable integration of SEAP and Luciferase reporter genes, which expression is under the control of 5 tandem response elements for NF-KB/AP1 and STAT1/STAT2, respectively. The cell line was used to monitor Type I interferon induction and subsequent signaling by measuring the activity of the Lucia luciferase secreted in the culture medium.
HCT116 cells were plated in 96-well plate(s) at 40,000 cells/well in 100 uL DMEM supplemented with 10% FBS and 25 mM Hepes (pH 7.2-7.5). After overnight settling, cells were treated with TREX1i for 4 h (maximum DMSO fraction was 0.1%) before 1.25 ug/mL pBR322/BstNI restriction digest (New England Biolabs, Ipswich, Mass., USA) was transfected with Lipofectamine LTX (ThermoFisher, Grand Island, N.Y., USA), according to product manual recommendations. Briefly, Lipofectamine LTX (0.4 uL/well) was diluted in OptiMEM (5 uL/well). pBR322/BstNI (100 ng/well) was diluted in OptiMEM (5 uL/well) before Plus reagent (0.1 uL/100 ng DNA) was added. After 5 min incubation at room temperature, the DNA mixture was mixed dropwise with the diluted Lipofectamine LTX. After an additional 10 min incubation, the transfection mix (10 uL/well) was added to the cells. […]

IC50 [1]: < 100 nM
IC50 [2]: < 1000 nM
EC50 [3]: < 1000 nM
SMILES: CCOc1cccc(Cl)c1C(c1ccccc1)N(C)c1nc(C(=O)Nc2cnoc2)c(O)c(=O)n1C (single isomer, unassigned)

— US20220289728A1, “MODULATORS OF TREX1” (Constellation Pharmaceuticals, Inc., priority 2019, published 2022)
